In data set [1] the target is T1, 2-aminobenzamide-AAGVAMPGAEDDVVGSGSK(N3).
T1 chain: AAGVAMPGAEDDVVGSGSK

In data set [2] the target is T2, Target peptide labeled with 5-nitro isatoic anhydride (5-nitro-2-aminobenzamide-AAGVAMPGAEDDVVGSGSK(N3)).
T2 chain: AAGVAMPGAEDDVVGSGSK

The target of data set [3] is T3, Target peptide labeled with succinic anhydride (succinic acid-labeled AAGVAMPGAEDDVVGSGSK(N3)).
T3 chain: AAGVAMPGAEDDVVGSGSK

B1: Modified cleavase N191C/W192L/N306R/N310D/G651Y/S655G/V656G (SEQ ID NO: 32) (protein)
chain: GEGMWVPQQLPEIAGPLKKAGLKLSPQQISDLTGDPMGAVVALGGCTASFVSPNGLVVTNHHCAYGAIQLNSTAENNLIKNGFNAPTTADEVSAGPNARVFVLDEITDVTKDAKAAIAAAGDDALARTKALEAFEKKLIADCEAEAGFRCRLYSFSGGNTYRLFKNLEIKDVRLAYAPPGSVGKFGGDIDCLMWPRHTGDFAFYRAYVGKDGKPAAFSKDNVPYQPKHWLKFADQPLGAGDFVMVAGYPGSTNRYALAAEFDNTAQWTYPTIARHYKNQIAMVEAAGKQNADIQVKYAATMAGWNRTSKDYDGQLEGFKRIDAAGQKLREEAAVLGWLKGQGAKGQPALDAHAKLLDLLEQSKATRDRDLTLALFNNTAMLGSATQLYRLSIEREKPNAERESGYQERDLPAIEGGLKQLERRYVAAMDRQLQEYWLNEYIKLPADQRVAAVDAWLGGNDAAAVKRALDRLAGTKLGSTEERLKWFAADRKAFEASNDPAIQYAVAVMPTLLKLEQERKTRAGENLAARPVYLQALADYKKSQGEFVYPDANLSLRITFGNVMGYAPKDGMEYTPFTTLEGVVAKETGQDPFDSPKALLDAVAAKRYGGLEDKRIGSVPVNYLSDLDITGGNSGSPVLDAHGKLVGLAFDYNWEGGSSNWVFDPKMTRMIAVDGRYLRWIMQEVYPAPQLLKEMNVGK
Take B1: in data set [1], the “Product Removed by Modified Cleavase” value is 2-aminobenzamide-P1.

B2: Modified cleavase N191F/W192F/N306R/N310G/G651H/V656E (SEQ ID NO: 33) (protein)
chain: GEGMWVPQQLPEIAGPLKKAGLKLSPQQISDLTGDPMGAVVALGGCTASFVSPNGLVVTNHHCAYGAIQLNSTAENNLIKNGFNAPTTADEVSAGPNARVFVLDEITDVTKDAKAAIAAAGDDALARTKALEAFEKKLIADCEAEAGFRCRLYSFSGGNTYRLFKNLEIKDVRLAYAPPGSVGKFGGDIDFFMWPRHTGDFAFYRAYVGKDGKPAAFSKDNVPYQPKHWLKFADQPLGAGDFVMVAGYPGSTNRYALAAEFDNTAQWTYPTIARHYKNQIAMVEAAGKQNADIQVKYAATMAGWNRTSKGYDGQLEGFKRIDAAGQKLREEAAVLGWLKGQGAKGQPALDAHAKLLDLLEQSKATRDRDLTLALFNNTAMLGSATQLYRLSIEREKPNAERESGYQERDLPAIEGGLKQLERRYVAAMDRQLQEYWLNEYIKLPADQRVAAVDAWLGGNDAAAVKRALDRLAGTKLGSTEERLKWFAADRKAFEASNDPAIQYAVAVMPTLLKLEQERKTRAGENLAARPVYLQALADYKKSQGEFVYPDANLSLRITFGNVMGYAPKDGMEYTPFTTLEGVVAKETGQDPFDSPKALLDAVAAKRYGGLEDKRIGSVPVNYLSDLDITGGNSGSPVLDAHGKLVGLAFDHNWESESSNWVFDPKMTRMIAVDGRYLRWIMQEVYPAPQLLKEMNVGK
As to B2, the “Product Removed by Modified Cleavase” value in data set [1] was 2-aminobenzamide-P1.

B3: Modified cleavase N191S/R196H/N306A/D650G (SEQ ID NO: 35) (protein)
chain: GEGMWVPQQLPEIAGPLKKAGLKLSPQQISDLTGDPMGAVVALGGCTASFVSPNGLVVTNHHCAYGAIQLNSTAENNLIKNGFNAPTTADEVSAGPNARVFVLDEITDVTKDAKAAIAAAGDDALARTKALEAFEKKLIADCEAEAGFRCRLYSFSGGNTYRLFKNLEIKDVRLAYAPPGSVGKFGGDIDSWMWPHHTGDFAFYRAYVGKDGKPAAFSKDNVPYQPKHWLKFADQPLGAGDFVMVAGYPGSTNRYALAAEFDNTAQWTYPTIARHYKNQIAMVEAAGKQNADIQVKYAATMAGWNATSKNYDGQLEGFKRIDAAGQKLREEAAVLGWLKGQGAKGQPALDAHAKLLDLLEQSKATRDRDLTLALFNNTAMLGSATQLYRLSIEREKPNAERESGYQERDLPAIEGGLKQLERRYVAAMDRQLQEYWLNEYIKLPADQRVAAVDAWLGGNDAAAVKRALDRLAGTKLGSTEERLKWFAADRKAFEASNDPAIQYAVAVMPTLLKLEQERKTRAGENLAARPVYLQALADYKKSQGEFVYPDANLSLRITFGNVMGYAPKDGMEYTPFTTLEGVVAKETGQDPFDSPKALLDAVAAKRYGGLEDKRIGSVPVNYLSDLDITGGNSGSPVLDAHGKLVGLAFGGNWESVSSNWVFDPKMTRMIAVDGRYLRWIMQEVYPAPQLLKEMNVGK
On to B3, for which the “Product Removed by Modified Cleavase” value in data set [2] is 5-nitro-2-aminobenzamide-P1.

B4: Modified cleavase N191R/W192L/N306S/N310L/G651T/S655T/V656S (SEQ ID NO: 34) (protein)
chain: GEGMWVPQQLPEIAGPLKKAGLKLSPQQISDLTGDPMGAVVALGGCTASFVSPNGLVVTNHHCAYGAIQLNSTAENNLIKNGFNAPTTADEVSAGPNARVFVLDEITDVTKDAKAAIAAAGDDALARTKALEAFEKKLIADCEAEAGFRCRLYSFSGGNTYRLFKNLEIKDVRLAYAPPGSVGKFGGDIDRLMWPRHTGDFAFYRAYVGKDGKPAAFSKDNVPYQPKHWLKFADQPLGAGDFVMVAGYPGSTNRYALAAEFDNTAQWTYPTIARHYKNQIAMVEAAGKQNADIQVKYAATMAGWNSTSKLYDGQLEGFKRIDAAGQKLREEAAVLGWLKGQGAKGQPALDAHAKLLDLLEQSKATRDRDLTLALFNNTAMLGSATQLYRLSIEREKPNAERESGYQERDLPAIEGGLKQLERRYVAAMDRQLQEYWLNEYIKLPADQRVAAVDAWLGGNDAAAVKRALDRLAGTKLGSTEERLKWFAADRKAFEASNDPAIQYAVAVMPTLLKLEQERKTRAGENLAARPVYLQALADYKKSQGEFVYPDANLSLRITFGNVMGYAPKDGMEYTPFTTLEGVVAKETGQDPFDSPKALLDAVAAKRYGGLEDKRIGSVPVNYLSDLDITGGNSGSPVLDAHGKLVGLAFDTNWETSSSNWVFDPKMTRMIAVDGRYLRWIMQEVYPAPQLLKEMNVGK
As to B4, in data set [1], the “Product Removed by Modified Cleavase” value is recorded as 2-aminobenzamide-P1.

B5: Modified cleavase N191V/N306A/D650S (SEQ ID NO: 38) (protein)
chain: GEGMWVPQQLPEIAGPLKKAGLKLSPQQISDLTGDPMGAVVALGGCTASFVSPNGLVVTNHHCAYGAIQLNSTAENNLIKNGFNAPTTADEVSAGPNARVFVLDEITDVTKDAKAAIAAAGDDALARTKALEAFEKKLIADCEAEAGFRCRLYSFSGGNTYRLFKNLEIKDVRLAYAPPGSVGKFGGDIDVWMWPRHTGDFAFYRAYVGKDGKPAAFSKDNVPYQPKHWLKFADQPLGAGDFVMVAGYPGSTNRYALAAEFDNTAQWTYPTIARHYKNQIAMVEAAGKQNADIQVKYAATMAGWNATSKNYDGQLEGFKRIDAAGQKLREEAAVLGWLKGQGAKGQPALDAHAKLLDLLEQSKATRDRDLTLALFNNTAMLGSATQLYRLSIEREKPNAERESGYQERDLPAIEGGLKQLERRYVAAMDRQLQEYWLNEYIKLPADQRVAAVDAWLGGNDAAAVKRALDRLAGTKLGSTEERLKWFAADRKAFEASNDPAIQYAVAVMPTLLKLEQERKTRAGENLAARPVYLQALADYKKSQGEFVYPDANLSLRITFGNVMGYAPKDGMEYTPFTTLEGVVAKETGQDPFDSPKALLDAVAAKRYGGLEDKRIGSVPVNYLSDLDITGGNSGSPVLDAHGKLVGLAFSGNWESVSSNWVFDPKMTRMIAVDGRYLRWIMQEVYPAPQLLKEMNVGK
Take B5: the “Product Removed by Modified Cleavase” value in data set [3] is “Succinic acid-labeled Pl”.

B6: Modified cleavase N191M/R196H/N306A/D650G (SEQ ID NO: 37) (protein)
chain: GEGMWVPQQLPEIAGPLKKAGLKLSPQQISDLTGDPMGAVVALGGCTASFVSPNGLVVTNHHCAYGAIQLNSTAENNLIKNGFNAPTTADEVSAGPNARVFVLDEITDVTKDAKAAIAAAGDDALARTKALEAFEKKLIADCEAEAGFRCRLYSFSGGNTYRLFKNLEIKDVRLAYAPPGSVGKFGGDIDMWMWPHHTGDFAFYRAYVGKDGKPAAFSKDNVPYQPKHWLKFADQPLGAGDFVMVAGYPGSTNRYALAAEFDNTAQWTYPTIARHYKNQIAMVEAAGKQNADIQVKYAATMAGWNATSKNYDGQLEGFKRIDAAGQKLREEAAVLGWLKGQGAKGQPALDAHAKLLDLLEQSKATRDRDLTLALFNNTAMLGSATQLYRLSIEREKPNAERESGYQERDLPAIEGGLKQLERRYVAAMDRQLQEYWLNEYIKLPADQRVAAVDAWLGGNDAAAVKRALDRLAGTKLGSTEERLKWFAADRKAFEASNDPAIQYAVAVMPTLLKLEQERKTRAGENLAARPVYLQALADYKKSQGEFVYPDANLSLRITFGNVMGYAPKDGMEYTPFTTLEGVVAKETGQDPFDSPKALLDAVAAKRYGGLEDKRIGSVPVNYLSDLDITGGNSGSPVLDAHGKLVGLAFGGNWESVSSNWVFDPKMTRMIAVDGRYLRWIMQEVYPAPQLLKEMNVGK
In the case of B6, in data set [2], the “Product Removed by Modified Cleavase” value is 5-nitro-2-aminobenzamide-labeled P1.

B7: Modified cleavase N191T/R196H/N306A/D650G (SEQ ID NO: 36) (protein)
chain: GEGMWVPQQLPEIAGPLKKAGLKLSPQQISDLTGDPMGAVVALGGCTASFVSPNGLVVTNHHCAYGAIQLNSTAENNLIKNGFNAPTTADEVSAGPNARVFVLDEITDVTKDAKAAIAAAGDDALARTKALEAFEKKLIADCEAEAGFRCRLYSFSGGNTYRLFKNLEIKDVRLAYAPPGSVGKFGGDIDTWMWPHHTGDFAFYRAYVGKDGKPAAFSKDNVPYQPKHWLKFADQPLGAGDFVMVAGYPGSTNRYALAAEFDNTAQWTYPTIARHYKNQIAMVEAAGKQNADIQVKYAATMAGWNATSKNYDGQLEGFKRIDAAGQKLREEAAVLGWLKGQGAKGQPALDAHAKLLDLLEQSKATRDRDLTLALFNNTAMLGSATQLYRLSIEREKPNAERESGYQERDLPAIEGGLKQLERRYVAAMDRQLQEYWLNEYIKLPADQRVAAVDAWLGGNDAAAVKRALDRLAGTKLGSTEERLKWFAADRKAFEASNDPAIQYAVAVMPTLLKLEQERKTRAGENLAARPVYLQALADYKKSQGEFVYPDANLSLRITFGNVMGYAPKDGMEYTPFTTLEGVVAKETGQDPFDSPKALLDAVAAKRYGGLEDKRIGSVPVNYLSDLDITGGNSGSPVLDAHGKLVGLAFGGNWESVSSNWVFDPKMTRMIAVDGRYLRWIMQEVYPAPQLLKEMNVGK
Regarding B7, the “Product Removed by Modified Cleavase” value in data set [2] is recorded as 5-nitro-2-aminobenzamide-P1.

B8: unnamed (protein)
chain: GEGMWVPQQLPEIAGPLKKAGLKLSPQQISDLTGDPMGAVVALGGCTASFVSPNGLVVTNHHCAYGAIQLNSTAENNLIKNGFNAPTTADEVSAGPNARVFVLDEITDVTKDAKAAIAAAGDDALARTKALEAFEKKLIADCEAEAGFRCRLYSFSGGNTYRLFKNLEIKDVRLAYAPPGSVGKFGGDIDCLMWPKHTGDFAFYRAYVGKDGKPAAFSKDNVPYQPKHWLKFADQPLGAGDFVMVAGYPGSTNRYALAAEFDNTAQWTYPTIARHYKNQIAMVEAAGKQNADIQVKYAATMAGWNRTSKDYDGQLEGFKRIDAAGQKLREEAAVLGWLKGQGAKGQPALDAHAKLLDLLEQSKATRDRDLTLALFNNTAMLGSATQLYRLSIEREKPNAERESGYQERDLPAIEGGLKQLERRYVAAMDRQLQEYWLNEYIKLPADQRVAAVDAWLGGNDAAAVKRALDRLAGTKLGSTEERLKWFAADRKAFEASNDPAIQYAVAVMPTLLKLEQERKTRAGENLAARPVYLQALADYKKSQGEFVYPDANLSLRITFGNVMGYAPKDGMEYTPFTTLEGVVAKETGQDPFDSPKALLDAVAAKRYGGLEDKRIGSVPVNYLSDLDITGGNSGSPVLDAHGKLVGLAFDYNWEGGSSNWVFDPKMTRMIAVDGRYLRWIMQEVYPAPQLLKEMNVGK
As to B8, in data set [1], the “Product Removed by Modified Cleavase” value is 2-aminobenzamide-P1.

These data come from US20230257727.
